Reference: article PMC10076467 (EJNMMI Research, 2023)

By UniProt entry, the sequences of proteins in these tests, tags left out. Residues count along the entry.
UniProt Q00960, 27-1482: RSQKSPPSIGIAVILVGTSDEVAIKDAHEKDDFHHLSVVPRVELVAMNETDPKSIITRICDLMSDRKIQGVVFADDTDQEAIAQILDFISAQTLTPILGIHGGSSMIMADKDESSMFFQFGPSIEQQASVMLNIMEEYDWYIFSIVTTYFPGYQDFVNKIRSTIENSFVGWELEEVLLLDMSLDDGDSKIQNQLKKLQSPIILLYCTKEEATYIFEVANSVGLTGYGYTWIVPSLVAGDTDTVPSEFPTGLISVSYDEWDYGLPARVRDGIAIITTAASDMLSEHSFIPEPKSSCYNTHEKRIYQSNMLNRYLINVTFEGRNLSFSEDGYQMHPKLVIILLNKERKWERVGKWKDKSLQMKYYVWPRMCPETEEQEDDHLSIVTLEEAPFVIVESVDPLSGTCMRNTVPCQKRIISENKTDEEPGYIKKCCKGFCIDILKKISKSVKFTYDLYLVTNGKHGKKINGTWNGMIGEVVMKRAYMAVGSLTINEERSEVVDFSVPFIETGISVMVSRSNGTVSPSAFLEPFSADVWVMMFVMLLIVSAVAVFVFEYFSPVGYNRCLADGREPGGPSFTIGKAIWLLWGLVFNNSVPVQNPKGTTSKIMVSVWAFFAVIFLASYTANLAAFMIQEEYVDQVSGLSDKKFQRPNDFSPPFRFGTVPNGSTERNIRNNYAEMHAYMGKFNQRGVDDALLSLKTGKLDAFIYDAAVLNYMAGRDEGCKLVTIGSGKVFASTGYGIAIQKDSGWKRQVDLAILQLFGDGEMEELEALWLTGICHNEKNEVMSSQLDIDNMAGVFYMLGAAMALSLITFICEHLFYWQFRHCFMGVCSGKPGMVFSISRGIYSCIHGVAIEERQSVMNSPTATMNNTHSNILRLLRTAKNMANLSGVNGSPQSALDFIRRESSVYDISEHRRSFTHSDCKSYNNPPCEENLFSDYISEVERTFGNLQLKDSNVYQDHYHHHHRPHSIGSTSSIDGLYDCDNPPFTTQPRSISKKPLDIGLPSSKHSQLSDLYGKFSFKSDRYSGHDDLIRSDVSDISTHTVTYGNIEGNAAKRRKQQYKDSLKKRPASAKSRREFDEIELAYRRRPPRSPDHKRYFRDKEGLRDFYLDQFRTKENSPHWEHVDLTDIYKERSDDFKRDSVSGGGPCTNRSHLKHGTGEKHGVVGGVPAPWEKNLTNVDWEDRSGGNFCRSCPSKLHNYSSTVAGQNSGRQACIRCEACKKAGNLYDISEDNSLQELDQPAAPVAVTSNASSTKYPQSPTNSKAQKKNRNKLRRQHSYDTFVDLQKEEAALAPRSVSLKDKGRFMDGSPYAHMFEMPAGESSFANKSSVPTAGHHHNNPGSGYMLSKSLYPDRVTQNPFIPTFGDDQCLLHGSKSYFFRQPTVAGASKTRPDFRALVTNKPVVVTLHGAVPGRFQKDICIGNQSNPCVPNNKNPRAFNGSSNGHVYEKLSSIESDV

Legend:
GluN2B receptors [1] = biological target: T1, GluN2B receptors (Rattus norvegicus, UniProt P35439+Q00960); experiment: PET displacement / pre-blocking of ^11C-NR2B-Me radioligands with Ro-25-6981, Lassen plots; format: in vivo
T1 construct: from tissue; host or cells: brain of living male rats (PET imaging)
Method: (§1) For radioligand injection, a polyethylene catheter (PE 10) was inserted into the penile vein of a male rat and then secured with tissue adhesive and tape. […] Body temperature was monitored with a rectal probe. All PET scans were performed on a microPET Focus 220 scanner (Siemens Medical Solutions) (7,8). Data were acquired in listmode and reconstructed with Fourier rebinning + 2D filtered backprojection. A transmission scan was acquired before radioligand injection for attenuation correction. Dynamic scanning began at the time of a one-minute intravenous bolus injection of the radioligand under study (55 ± 19 MBq; volume 0.2 to 1.0 mL). The injected mass dose was 3 ± 1 nmol/kg. Challenge agents were administered intravenously 10 minutes before the radioligand for pre-blocking studies or 10 minutes after the radioligand for displacement studies. Tomographic images were analyzed with pixel-wise modeling computer software (PMOD 2.6; PMOD Group). Regions-of-interest in the brain were delineated, and time-activity curves calculated as SUV versus time.
(§2) Pre-blocking and displacement experiments were performed to assess radioligand target engagement and radioligand selectivity in vivo. […] Areas-under the curve (AUCs) from time-activity curves between 20 and 90 minutes were calculated for each radioligand. […] Numerical data are expressed as mean ± S.D. for n>2, or as mean and range for n = 2.

GluN2B receptors [2] = biological target: T1, GluN2B receptors; experiment: ED50 for pre-blocking of GluN2B radioligand uptake in rat whole brain (PET); format: in vivo
Method: as §1, §2

GluN2B receptors [3] = biological target: T1, GluN2B receptors; parameters: method as in PMID 31924728; settings: pre-blocking, radioligand ^11C-(S)-NR2B-SMe; cited from earlier work

Compound: C[C@@H](CN1CCC(Cc2ccccc2)CC1)[C@@H](O)c1ccc(O)cc1 [Ro-25-6981]
- reduction of PET signal in whole rat brain relative to baseline (GluN2B receptors [1]; 0.25 mg/kg i.v. 10 min before the radioligand (Fig. 3, ^11C-(−)-NR2B-Me)): up to 90%
- receptor occupancy from Lassen plot slope (GluN2B receptors [1]; 0.25 mg/kg pre-block, ^11C-(−)-NR2B-Me or ^11C-(+)-NR2B-Me): near full receptor occupancy
- ED50 (GluN2B receptors [2]; read-out: ED50 in rat whole brain in vivo ^11C-(+)-NR2B-Me): 0.045 µmol/kg
- ED50 (GluN2B receptors [2]; read-out: ED50 in rat whole brain in vivo ^11C-(−)-NR2B-Me): 0.034 µmol/kg
- ED50 in rat whole brain in vivo ^11C-(S)-NR2B-SMe (GluN2B receptors [3]): 29 nmol/kg

Read-outs that look alike come from different tables or passages of the source.
